By UniProt entry, the sequences of proteins in these tests, tags left out.
UniProt Q16539, whole entry: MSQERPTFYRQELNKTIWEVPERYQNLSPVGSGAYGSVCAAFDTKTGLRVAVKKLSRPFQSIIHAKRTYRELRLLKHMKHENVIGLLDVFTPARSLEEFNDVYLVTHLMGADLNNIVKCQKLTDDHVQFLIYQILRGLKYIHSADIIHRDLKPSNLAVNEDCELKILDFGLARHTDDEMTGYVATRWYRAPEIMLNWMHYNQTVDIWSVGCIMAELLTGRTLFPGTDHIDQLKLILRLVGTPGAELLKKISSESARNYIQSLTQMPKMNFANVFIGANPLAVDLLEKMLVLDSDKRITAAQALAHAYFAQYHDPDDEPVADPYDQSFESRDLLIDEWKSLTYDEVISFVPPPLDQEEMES

In ChEMBL document CHEMBL1144780, “Synthesis and SAR of new pyrrolo[2,1-f][1,2,4]triazines as potent p38 alpha MAP kinase inhibitors” (Bioorg Med Chem Lett, 2008):

Molecular target: Mitogen-activated protein kinase 14 (Homo sapiens, UniProt Q16539)
Assay: Inhibition of p38alpha
How it was run: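 Bacterially expressed, activated p38 at 10 nM, preincubated 10 min with compound in 50 mM Tris pH 7.5, 10 mM MgCl2, 50 mM NaCl, 1 mM DTT, 0.3% DMSO. Run 45 min at 25 °C, stopped with EDTA, filter-captured and scintillation counted. IC50 from nonlinear least-squares regression.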

IC50: 16 nM
SMILES: COC[C@H](C)NC(=O)c1cn2ncnc(Nc3cc(NC(=O)c4ccc(C#N)cc4)ccc3C)c2c1C
